The record followed here is US5527781A, “4-O-(aminoglycosyl)- or 4,6-di-O-(aminoglycosyl)-2,5-dideoxy-5,5-difluorostreptamine derivatives” (Zaidan Hojin Biseibutsu Kagaku Kenkyu Kai, priority 1990, dated 1996).

By LD50 is commonly meant the dose at which mortality reaches 50%. A high value points to a less toxic substance.

This series is described as follows: in vivo. As to conditions: mouse, iv, pH 7. From the text:
Further, in order to estimate acute toxicity of the compound of the general formula (I) according to this invention, some examples of the compounds of this invention were independently dissolved in water to prepare aqueous solutions (as adjusted to pH 7 by addition of hydrochloric acid). […] The tested compounds of this invention are expressed by the same abbreviations as in Table 1. […] The comparative compounds as tested are also expressed by the same abbreviations as in Table 1.

In turn, `NC[C@@H]1CC[C@@H](N)[C@@H](O[C@H]2[C@H](O)[C@@H](O[C@H]3O[C@H](CO)[C@@H](O)[C@H](N)[C@H]3O)[C@H](N)C[C@@H]2N)O1` [DKB, 3',4'-dideoxy-kanamycin B, reference compound] yielded an LD50 of around 90 mg/kg.
